From ChEMBL document CHEMBL1129946, “New esters of 4-amino-5-chloro-2-methoxybenzoic acid as potent agonists and antagonists for 5-HT4 receptors” (J Med Chem, 1997)

Amino acid sequences for entries named in this document (tags omitted). A change or cut given only in a name is not applied to a line headed by its entry.
UniProt O70528: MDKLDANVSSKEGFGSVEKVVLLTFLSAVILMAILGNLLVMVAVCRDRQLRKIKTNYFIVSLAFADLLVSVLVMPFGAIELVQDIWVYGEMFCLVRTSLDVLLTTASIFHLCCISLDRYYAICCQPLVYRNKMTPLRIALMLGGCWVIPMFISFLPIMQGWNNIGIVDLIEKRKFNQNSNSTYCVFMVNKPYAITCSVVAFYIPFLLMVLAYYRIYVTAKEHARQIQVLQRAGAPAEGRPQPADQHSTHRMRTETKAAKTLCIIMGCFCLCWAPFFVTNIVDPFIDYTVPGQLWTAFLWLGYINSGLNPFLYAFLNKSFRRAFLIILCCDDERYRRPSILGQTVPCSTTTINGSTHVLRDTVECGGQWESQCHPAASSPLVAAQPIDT

Target: 5-hydroxytryptamine receptor 4 (Cavia porcellus) (UniProt O70528)
Experiment: 5-hydroxytryptamine 4 receptor agonist activity is expressed as percent of the maximum 5-HT response
Format: functional

SMILES: COc1cc(N)c(Cl)cc1C(=O)OCCN1CCOCC1
- Activity: 53%
